From patent US7795261B2, “Substituted 1-piperidin-4-yl-4-pyrrolidin-3-yl-piperazine derivatives and their use as neurokinin antagonists” (Janssen Pharmaceutica NV, priority 2002, dated 2010)

The chains behind the UniProt entries cited, without tags or fusion partners.
UniProt P25103, whole entry: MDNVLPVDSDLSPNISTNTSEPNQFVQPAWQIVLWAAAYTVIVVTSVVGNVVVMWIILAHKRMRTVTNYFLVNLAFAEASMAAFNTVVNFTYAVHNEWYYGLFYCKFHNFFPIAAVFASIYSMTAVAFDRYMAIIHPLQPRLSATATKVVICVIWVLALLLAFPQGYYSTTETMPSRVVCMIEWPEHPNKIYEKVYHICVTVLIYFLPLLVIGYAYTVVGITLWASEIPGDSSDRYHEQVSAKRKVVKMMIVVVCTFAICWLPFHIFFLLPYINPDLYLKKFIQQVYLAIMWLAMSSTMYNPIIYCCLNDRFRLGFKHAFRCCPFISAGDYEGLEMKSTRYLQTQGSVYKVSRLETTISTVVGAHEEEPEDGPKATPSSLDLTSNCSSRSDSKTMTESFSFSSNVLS
UniProt P29371, whole entry: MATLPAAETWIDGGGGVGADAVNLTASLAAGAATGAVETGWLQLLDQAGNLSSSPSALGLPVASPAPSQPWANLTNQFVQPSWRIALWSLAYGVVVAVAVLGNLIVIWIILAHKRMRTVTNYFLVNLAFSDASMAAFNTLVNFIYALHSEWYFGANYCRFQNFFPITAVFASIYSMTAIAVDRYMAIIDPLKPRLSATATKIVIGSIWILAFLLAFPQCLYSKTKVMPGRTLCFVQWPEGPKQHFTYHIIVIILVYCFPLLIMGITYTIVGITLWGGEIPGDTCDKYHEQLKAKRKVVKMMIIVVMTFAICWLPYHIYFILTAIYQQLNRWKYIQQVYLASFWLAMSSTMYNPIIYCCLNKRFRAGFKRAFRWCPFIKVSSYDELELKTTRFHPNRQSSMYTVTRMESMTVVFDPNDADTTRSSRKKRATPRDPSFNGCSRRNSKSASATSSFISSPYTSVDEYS
UniProt P21452, whole entry: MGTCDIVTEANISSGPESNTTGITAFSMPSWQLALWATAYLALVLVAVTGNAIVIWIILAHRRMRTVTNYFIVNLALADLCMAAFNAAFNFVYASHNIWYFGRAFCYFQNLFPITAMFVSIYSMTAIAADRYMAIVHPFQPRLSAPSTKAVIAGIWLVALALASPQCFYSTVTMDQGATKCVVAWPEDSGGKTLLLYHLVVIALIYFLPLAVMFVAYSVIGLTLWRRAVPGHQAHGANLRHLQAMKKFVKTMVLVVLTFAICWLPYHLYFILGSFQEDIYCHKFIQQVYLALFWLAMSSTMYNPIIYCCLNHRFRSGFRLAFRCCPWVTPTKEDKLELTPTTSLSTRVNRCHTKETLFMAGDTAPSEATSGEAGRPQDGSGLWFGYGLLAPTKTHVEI

Columns and labels:
NK1 = NK1 (Homo sapiens, UniProt P25103); experiment: Signal transduction (ST), intracellular Ca++ (FLIPR), NK1 antagonistic activity
NK3 = NK3 (Homo sapiens, UniProt P29371); experiment: Signal transduction (ST), intracellular Ca++ (FLIPR), NK3
NK2 = NK2 (Homo sapiens, UniProt P21452); experiment: Signal transduction (ST), intracellular Ca++ (FLIPR), NK2
Experimental: [The procedure below names another target; the source lists this target under the same test.] This test evaluates in vitro functional NK1 antagonistic activity. For the measurements of intracellular Ca^++ concentrations the cells were grown on 96-well (black wall/transparent bottom) plates from Costar for 2 days until they reached confluence. The cells were loaded with 2 μM Fluo3 in DMEM containing 0.1% BSA and 2.5 mM probenecid for 1 h at 37° C. They were washed 3× with a Krebs buffer (140 mM NaCl, 1 mM MgCl2×6H2O, 5 mM KCl, 10 mM glucose, 5 mM HEPES; 1.25 mM CaCl2; pH 7.4) containing 2.5 mM probenecid and 0.1% BSA (Ca^++-buffer). The cells were preincubated with a concentration range of antagonists for 20 min at RT and Ca^++-signals after addition of the agonists were measured in a Fluorescence Image Plate Reader (FLIPR from Molecular Devices, Crawley, England). The peak of the Ca^++-transient was considered as the relevant signal and the mean values of corresponding wells were analysed as described below.
The sigmoidal dose response curves were analysed by computerised curve-fitting, using the GraphPad Program. The EC50-value of a compound is the effective dose showing 50% of maximal effect. For mean curves the response to the agonist with the highest potency was normalised to 100%. For antagonist responses the IC50-value was calculated using non-linear regression.
The last columns indicates—without being limited therefore—for which the compounds might be most suitable. Of course, since for some neurokinin receptors no data was determined, it is obvious that these compounds might be attributed to another suitable use.

SMILES | pIC50 NK1 (NK1) | pIC50 NK3 (NK3) | pIC50 NK2 (NK2)
CC(C)(C)C(=O)N1CC[C@H](N2CCN([C@H]3CCN(C(=O)c4cc(C(F)(F)F)cc(C(F)(F)F)c4)[C@H](Cc4ccccc4)C3)CC2)C1 | 7.9 | 6.0 | 5.5
O=C(c1cc(C(F)(F)F)cc(C(F)(F)F)c1)N1CC[C@H](N2CCN([C@H]3CCNC3)CC2)C[C@H]1Cc1ccc(Cl)c(Cl)c1 | 8.0 |  | 5.6
CC(C)(C)OC(=O)N1CC[C@H](N2CCN([C@H]3CCN(C(=O)c4cc(C(F)(F)F)cc(C(F)(F)F)c4)[C@H](Cc4ccc(Cl)c(Cl)c4)C3)CC2)C1 | 7.4 | 5.5 | 5.5

The next lines start with the values.

pIC50 NK1 (NK1) | pIC50 NK3 (NK3) | pIC50 NK2 (NK2) | SMILES
8.4 | 6.4 | 5.9 | O=C(C1CCOC1)N1CCC(N2CCN([C@H]3CCN(C(=O)c4cc(C(F)(F)F)cc(C(F)(F)F)c4)[C@H](Cc4ccc(Cl)c(Cl)c4)C3)CC2)C1 (some centres unmarked)
8.5 | 5.8 | 5.8 | CC(C)(C)C(=O)N1CC[C@@H](N2CCN([C@H]3CCN(C(=O)c4cc(C(F)(F)F)cc(C(F)(F)F)c4)[C@H](Cc4ccccc4)C3)CC2)C1
